From US9290528B1, “Light-activated compounds” (University of Kentucky Research Foundation, priority 2013, dated 2016)

Legend:
[1] = tested on: HL60 cells
[2] = tested on: HL60 cells; experiment: Cellular uptake by flow cytometry; details: for uptake of 9 compared with 10 (increase in signal): 9 at 5 μM, 10 at 20 μM

Ru(bathophenanthroline)3 [Compound 9]
increase of relative amount in cells from 2 to 24 hours [1]: approximately 4 fold
relative amount of compound in cells versus the cell media [1]: 5.6%
increase of average emission of cells between 2 and 24 hours [2]: 2.8 fold
uptake of 9 compared with 10 (increase in signal) ([2]; 2 hours): 11.6 fold
uptake of 9 compared with 10 (increase in signal) ([2]; 24 hours): 8.2 fold
